Literature values, collected in patent US20100105761A1, “TREATMENT OF PAIN THROUGH EXPRESSION OF OPIOID RECEPTORS” (priority 2006, published 2010).

Protein sequences, listed by entry. Tags and fused reporters are not part of them.
UniProt P41143, whole entry: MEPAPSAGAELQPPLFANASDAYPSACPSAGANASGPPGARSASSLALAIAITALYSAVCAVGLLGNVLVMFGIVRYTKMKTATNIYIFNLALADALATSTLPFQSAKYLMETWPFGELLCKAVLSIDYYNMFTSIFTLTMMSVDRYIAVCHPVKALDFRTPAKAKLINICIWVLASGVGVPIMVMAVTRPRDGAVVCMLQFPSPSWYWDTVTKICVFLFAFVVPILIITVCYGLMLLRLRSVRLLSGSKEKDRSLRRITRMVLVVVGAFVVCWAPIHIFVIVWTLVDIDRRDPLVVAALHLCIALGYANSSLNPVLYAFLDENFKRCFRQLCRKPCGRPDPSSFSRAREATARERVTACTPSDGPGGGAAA
UniProt P35372, whole entry: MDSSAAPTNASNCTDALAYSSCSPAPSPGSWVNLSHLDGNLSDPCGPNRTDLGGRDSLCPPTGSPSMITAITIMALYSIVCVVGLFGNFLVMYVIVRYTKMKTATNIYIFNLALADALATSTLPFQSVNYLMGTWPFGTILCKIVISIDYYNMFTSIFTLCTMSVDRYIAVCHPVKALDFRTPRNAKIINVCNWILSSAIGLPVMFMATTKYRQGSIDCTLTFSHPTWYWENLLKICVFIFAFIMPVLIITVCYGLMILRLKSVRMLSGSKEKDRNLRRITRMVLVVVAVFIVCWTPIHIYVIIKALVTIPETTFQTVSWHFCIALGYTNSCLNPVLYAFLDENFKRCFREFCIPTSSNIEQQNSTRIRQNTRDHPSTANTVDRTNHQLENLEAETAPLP

Columns and labels:
[1] = molecular target: human recombinant DOR-1 receptor (Homo sapiens, UniProt P41143)
μ-receptor = μ-receptor (Homo sapiens, UniProt P35372)

Substance	binding to human recombinant DOR-1 receptor [1]	affinity / selectivity for μ-receptors (in words) (μ-receptor)
DPDPE	bind	
endomorphin-2		highly selective
Endomorphin-1		highly selective
